Experimental data as given in ChEMBL document CHEMBL1126401, “New potent enkephalin analogs containing trifluoromethylamino acid residues” (Bioorg Med Chem Lett, 1992).

By UniProt entry, the sequences of proteins in these tests, tags left out.
UniProt P33533, whole entry: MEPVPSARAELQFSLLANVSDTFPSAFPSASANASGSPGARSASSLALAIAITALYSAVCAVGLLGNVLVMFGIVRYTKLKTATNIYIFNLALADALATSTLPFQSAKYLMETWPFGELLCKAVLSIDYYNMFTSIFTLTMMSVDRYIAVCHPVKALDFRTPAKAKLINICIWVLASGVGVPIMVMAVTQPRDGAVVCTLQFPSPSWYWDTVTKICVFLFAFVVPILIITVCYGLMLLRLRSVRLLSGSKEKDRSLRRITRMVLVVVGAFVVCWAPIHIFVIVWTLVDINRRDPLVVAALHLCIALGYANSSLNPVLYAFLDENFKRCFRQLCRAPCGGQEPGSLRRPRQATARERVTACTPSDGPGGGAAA

Biological target: Delta-type opioid receptor (Rattus norvegicus, UniProt P33533)
Experiment: Compound was evaluated for its binding affinity against enkephalin delta receptor using [3H]DPDPE as ligand in rat cerebrum in vitro

Compound: CSCC[C@H](NC(=O)[C@H](Cc1ccccc1)NC(=O)CNC(=O)CNC(=O)[C@@H](N)Cc1ccc(O)cc1)C(=O)O
- IC50: 1 nM
